{
  "source": "paper PMC9287337",
  "about": "(Scientific Reports, 2022)",
  "format_in_all_cases": "cell-based, mouse",
  "key": {"[1]": {"tested_on": "p-Smad nuclear translocation", "assay": "Immunofluorescent labeling of p-Smad nuclear translocation", "details": "50 ng/mL, 30 min", "protocol": "To establish that SY-LB-35 and SY-LB-57 also stimulate the translocation of phosphorylated Smad to the nucleus, immunofluorescent labeling was performed. Serum-starved C2C12 cells grown on poly-D-lysine (PDL)-coated coverslips were stimulated with BMP2 (50 ng/mL), SY-LB-35 (1 µM) or SY-LB-57 (1 µM) for 30 min. The cultures were fixed and labelled with anti-p-Smad antibodies (red) and DAPI (blue), which stains the nuclei (Fig. 5B–E). In control, unstimulated C2C12 cells, low levels of diffuse, cytoplasmic p-Smad labeling were detected (Fig. 5B). […] Thus, like BMP2, SY-LB-35 and SY-LB-57 not only strongly stimulated Smad phosphorylation but also prompted p-Smad nuclear translocation.\n(§1) In a 24-well plate, 12 mm glass coverslips were coated for 1 h at RT with 500 µL PDL (0.1 mg/mL/ 0.1 M Boric acid), washed 4 times with cell culture-grade distilled water and sterilized under UV light for 30 min. C2C12 cells (500 µL) were seeded onto the PDL-coated coverslips at a density of 1 × 10^5 cells/mL, grown to 80% confluency and starved in SS medium for 2 h. Next, the cells were treated with 50 ng/mL BMP2 or 1 µM SY-LB-35 or SY-LB-57 for 15 min (for p-Akt labelling) or 30 min (for p-Smad labelling). Cells were then fixed using ice-cold 4% PFA/PBS for 10 min at RT. […]"}, "[2]": {"tested_on": "p-PI3K (PI3K phosphorylation)", "assay": "Western blot of p-PI3K normalized to β-actin", "details": "50 ng/mL, 15 min", "protocol": "To directly assess the activation of the PI3K enzyme, Western blot analysis was carried out on C2C12 cell whole cell lysates after a 15-min stimulation with 0.01–10 µM SY-LB-35 or SY-LB-57. SY-LB-35 and SY-LB-57 stimulated significant increases in the level of PI3K phosphorylation at 15 min at all concentrations tested (> 300% increase, ****p < 0.0005; Fig. 7A and Supplemental Fig. S6). Thus, the novel compounds appear to directly affect the phosphorylation of the PI3K enzyme.\n(§2) C2C12 cells (3 mL) were seeded into 35 mm dishes at 7.5 × 10^4 cells/mL in complete growth medium, incubated to reach 80% confluence and serum-starved for 16–18 h. Next, cells were treated with 50 ng/mL BMP2 and increasing concentrations of SY-LB-35 or SY-LB-57 for 15 min, 30 min or 24 h. Thereafter, the cultures were washed with ice-cold 1X TBS for 2 min. […]\n(§3) Laemmli sample buffer (4X) was added to the whole cell lysates (20 µg) to a final concentration of 1X and heated at 100 °C for 5 min. […] Finally, the blots were developed using SuperSignal ™ West Femto HRP Substrate solutions (Thermo Scientific, Rockford, IL, USA) and analysed using the Omega Lum™ G Imaging System (San Francisco, CA, USA). Quantification of chemiluminescent signals was carried out using ImageJ (Image Processing and Analysis in Java 1.8.0_112)."}, "[3]": {"tested_on": "type I BMP receptor-dependent p-Smad", "assay": "Western blot of p-Smad in presence or absence of Dorsomorphin", "details": "50 ng/mL, 30 min", "protocol": "To examine the contribution of type I BMP receptor activity to SY-LB-35- and SY-LB-57-stimulated Smad signaling, serum-starved C2C12 cells were stimulated with SY-LB-35 or SY-LB-57 at 1 µM for 30 min in presence or absence of Dorsomorphin (DM; a non-selective inhibitor of type I BMP receptors; 10 µM). Total whole cell lysates were prepared and used for Western blot analysis of Smad phosphorylation using anti-p-Smad antibodies.\nas §2, §3"}, "[4]": {"tested_on": "p-Akt cytoplasmic localization", "assay": "Immunofluorescent labeling of p-Akt", "details": "50 ng/mL, 15 min", "protocol": "(§4) To ascertain whether these novel indolyl-benzimidazole compounds can also activate non-canonical BMP-related pathways, stimulation of the PI3K/Akt pathway was assessed by first monitoring changes in the level of p-Akt in response to SY-LB-35 and SY-LB-57. Serum-starved C2C12 cells were stimulated with BMP2 (50 ng/mL) or increasing concentrations of SY-LB-35 and SY-LB-57 (0.01–10 µM) for 15 min.\nas §1, with “RT. Next, the coverslips were washed with ice-cold 1X PBS, transferred to a humidified chamber and incubated (100 µL/coverslip) in Permeabilization solution (0.1% Triton X-100/PBS) for 15 min, then Blocking Buffer (10% heat inactivated goat serum/ 0.3% Triton X-100/PBS) for 30 min. Anti-p-Smad antibodies in Antibody Dilution Buffer (1% BSA/0.1% Tween 20/PBS) were added for 1 h and the coverslips were washed 4 times with 1X PBS.” for “RT.”"}, "PI3K enzyme": {"tested_on": "PI3K enzyme", "assay": "PI3K ELISA on PI3K immunoprecipitated from treated cells", "details": "50 ng/mL, 15 min", "protocol": "To investigate whether the novel benzimidazoles directly regulate PI3K enzymatic activity, serum-starved C2C12 cells were stimulated with 50 ng/mL BMP2, 10 µM SY-LB-35, or 10 µM SY-LB-57 for 15 min and whole cell lysates were prepared. PI3K enzyme was immunoprecipitated and processed in a PI3K ELISA (Fig. 7B). A standard curve of known concentrations of PIP3 versus absorbance was plotted and used to determine the amount of PIP3 generated from a PIP2 substrate by active PI3K enzyme immunoprecipitated from the treated cell samples (Supplemental Fig. S7). The enzyme activity is expressed as the amount of product (PIP3) generated in each sample by the PI3K enzyme per minute of reaction.\nC2C12 cells were seeded in 35-mm dishes at 7 × 10^4 cells/mL and incubated at 37 °C in 5% CO2 to reach 80% confluency. The cells were starved for 16–18 h and then stimulated with BMP2 (50 ng/mL) as positive control and SY-LB-35 and SY-LB-57 at 10 µM for 15 min at 37 °C. Cells (~ 10^6) per treatment were collected to prepare whole cell lysates followed by exposure to three freeze/thaw cycles in liquid nitrogen. […] The optical density of the PIP3 standards and the reactions containing immunoprecipitated PI3K from treated samples was measured at 450 nm."}, "C2C12 cells": {"tested_on": "C2C12 cells", "assay": "RealTime-Glo MT cell viability assay", "details": "C2C12, 24 h, Supplemental Fig. S3", "protocol": "To first determine how these novel compounds effect the health of C2C12 cells and to establish the range of subtoxic concentrations for future studies, cell viability assays were carried out. Serum-starved C2C12 cells were exposed to increasing concentrations (0.01–1000 µM) of SY-LB-35 and SY-LB-57 for 24 h. Exposure to Triton X-100 (125 µM) is toxic to cells and was used as a negative control for cell viability. Following the 24-h exposure period, the MT Cell viability substrate was added to the cultures. Only viable cells can reduce the substrate and, thereby, generate a luminescent signal. Any decrease in luminescence was considered an indication of cell death or toxicity. In contrast, increases in luminescence signals are typically due to proliferation of cells in the treated cultures. […]\nNext, reagents from the RealTime-Glo™ MT Cell Viability Assay Kit (Promega, Madison, WI, USA) were diluted in SS medium and used according to manufacturer’s protocol. Cellular luminescence was measured using the FilterMax F5 Multi-mode Microplate Reader (Molecular Devices, San Jose, CA, USA). Data from three independent experiments with individual experiments carried out in triplicate was determined and reported as a percentage of control."}, "[5]": {"tested_on": "p-Akt (Akt phosphorylation)", "assay": "Western blot of p-Akt normalized to total Akt", "details": "50 ng/mL, 15 min", "protocol": "as §4\nC2C12 cells (3 mL) were seeded into 35 mm dishes at 7.5 × 10^4 cells/mL in complete growth medium, incubated to reach 80% confluence and serum-starved for 16–18 h. Next, cells were treated with 50 ng/mL BMP2 and increasing concentrations of SY-LB-35 or SY-LB-57 for 15 min, 30 min or 24 h. Thereafter, the cultures were washed with ice-cold 1X TBS for 2 min. Lysis Buffer (Cell Signaling Technology, Danvers, MA, USA) supplemented with 1 mM PMSF (phenylmethylsulphonyl fluoride) was added to the cultures and whole cell lysates were prepared.\nas §3"}, "[6]": {"tested_on": "p-Smad1/5/8 (Smad phosphorylation)", "assay": "Western blot of p-Smad normalized to total Smad", "details": "50 ng/mL, 30 min", "protocol": "To investigate whether the new indolyl-benzimidazole compounds activate BMP receptor-dependent signaling pathways, the levels of p-Smad in serum-starved C2C12 cells, treated for 30 min with SY-LB-35 and SY-LB-57, were assessed by Western blot analysis. Whole cell lysates of treated C2C12 cells were probed for p-Smad using phospho-specific anti-Smad antibodies. p-Smad levels were normalized against total Smad levels. BMP2-stimulated cells served as positive control and unstimulated cells helped to establish the baseline levels of p-Smad.\nas §2, §3"}},
  "note": "Several values for one entry are separate records, joined by “and”; a condition that tells them apart may be missing. Equal entries are not always repeated.",
  "data": [
    {"substance": "BMP2: recombinant Bone Morphogenetic Protein 2, positive control", "values": [
      {"measurement": "p-Smad nuclear translocation", "setting": "[1]", "value": "drastic increase in the level of phosphorylated Smad localized to the nucleus"},
      {"measurement": "p-PI3K level, percent of control", "setting": "[2]", "value": 589, "unit": "%"},
      {"measurement": "p-Smad level, DM(+)", "setting": "[3]; Dorsomorphin 10 µM pretreatment 1 h", "value": 122, "unit": "%"},
      {"measurement": "p-Smad level, DM(−)", "setting": "[3]; without Dorsomorphin", "value": 428, "unit": "%"},
      {"measurement": "p-Akt immunofluorescent labeling", "setting": "[4]", "value": "drastic increase in the level of phosphorylated Akt localized to the cytoplasm"},
      {"measurement": "PIP3 produced, higher compared to control untreated cells", "setting": "PI3K enzyme", "value": 30, "unit": "%"},
      {"measurement": "Amount of PIP3 produced by PI3K enzyme", "setting": "PI3K enzyme; control 0.61 pmol", "value": 0.79, "unit": "pmol"},
      {"measurement": "Effect on cell viability", "setting": "C2C12 cells", "value": "Increases in cell viability"},
      {"measurement": "Increase in p-Akt level over control", "setting": "[5]", "value": 813, "unit": "% over control"},
      {"measurement": "p-Akt level, percent of control", "setting": "[5]", "value": 913, "unit": "%"},
      {"measurement": "Increase in p-Smad level over control", "setting": "[6]", "value": "95 % over control and ~ 100 % over control"},
      {"measurement": "p-Smad level, percent of control", "setting": "[6]", "value": 195, "unit": "%"}
    ]}
  ]
}
